Assay [1] can be described thus: CCTE_Harrill_HTTr_Viability_MCF7: CCTE's 6-hour Cell Viability Assessment for the High-Throughput Transcriptomics (HTTr) Platform, in MCF-7 cells cultured in DMEM + 10% fetal bovine serum, Harrill Lab (AID 2284010). The method in brief:
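Cells were dosed with chemicals in an eight-point dilution series, imaged 6 hours later for propidium iodide uptake, and the endpoint was analyzed by bidirectional fitting against DMSO as negative control.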

Assay [2] is described as follows: CCTE_Harrill_HTTr_Apoptosis_MCF7: CCTE's 6-hour Apoptosis Assessment for the High-Throughput Transcriptomics (HTTr) Platform, in MCF-7 cells cultured in DMEM + 10% fetal bovine serum, Harrill Lab (AID 2284011). A digest of the protocol:
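High-content imaging of CellEvent Caspase 3/7 Green signal follows a six-hour exposure, with eight concentrations per chemical. MCF-7 cells grown in DMEM plus 10% fetal bovine serum; activity fitted in both directions against DMSO.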

Assay [3] in a line: CCTE_Harrill_HTTr_CellCount_MCF7: CCTE's Cell Proliferation Assessment for the High-Throughput Transcriptomics (HTTr) Platform, Harrill Lab (AID 2284012; active = hit-call score of the fitted dose curve at least 0.9, where 1 is the maximum;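 note: cells exposed to compound for six hours; intended direction is loss of nuclei count meaning fewer cells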). A digest of the protocol: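 Chemicals in eight-point dilution series are added to MCF-7 cells for six hours, nuclei are stained with Hoechst and imaged, and per-well nuclei counts are fitted in both directions relative to DMSO controls.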

Assay [4] is described as follows: CCTE_Shafer_MEA_acute_burst_number: CCTE's Neural Acute Assay for Single-Electrode Bursts, Shafer Lab (AID 2284013). The method in brief:
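Spontaneous network activity of primary rat cortical neurons was recorded extracellularly on microelectrode arrays at 37 C, with 40-min periods before and during exposure to 0.03-40 uM compound on DIV 13 or 15.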

Assay [5] can be described thus: CCTE_Shafer_MEA_acute_burst_duration_mean: CCTE's Neural Acute Assay for Mean Burst Duration, Shafer Lab (AID 2284014).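 Note: hits are decreases in mean burst duration relative to DMSO controls.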 A digest of the protocol: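 Read-out is the per-well percent change in mean burst duration (first to last spike within a single-electrode burst) between 40-min recordings before and after compound. Cultures were primary rat cortical neurons on MEAs, dosed at 0.03-40 uM on DIV 13 or 15.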

Assay [6] is described as follows: CCTE_Shafer_MEA_acute_per_burst_spike_number_mean: CCTE's Neural Acute Assay for Average Number of Spikes Per Burst, Shafer Lab (AID 2284015).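 Note: hits are decreases in mean spikes per burst versus baseline.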 The method in brief:
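Rat primary cortical neurons on 48-well MEAs (DIV 13 or 15) were treated with 0.03-40 uM compound at 37 C. Mean spikes per burst over 40 min were recorded before and after exposure and expressed as percent change from baseline, relative to DMSO.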

The nature of assay [7]: CCTE_Shafer_MEA_acute_interburst_interval_mean: CCTE's Neural Acute Assay for Mean Interburst Interval, Shafer Lab (AID 2284016).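 Note: percent change of mean interburst interval versus each well's own pre-dose baseline; curves fitted for decrease in interburst interval relative to DMSO.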 A digest of the protocol: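 Rat primary cortical neurons on 48-well MEAs at DIV 13 or 15 were exposed acutely to 0.03-40 uM. Spikes detected at 8x rms noise, 37 C. Mean interburst interval from 40 min recordings expressed as percent change from 40 min pre-treatment baseline.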

A short description of assay [8]: CCTE_Shafer_MEA_acute_burst_percentage_mean: CCTE's Neural Acute Assay for Percentage of Spikes in a Burst, Shafer Lab (AID 2284017).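 For AC50: curve fitted for loss of signal so potency reflects decreased burst percentage.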 A digest of the protocol:
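Primary rat cortical neurons on 48-well MEA plates, treated on DIV 13 or 15 at 0.03-40 uM. Spikes detected at 8x rms noise at 37C; percent change from 40-min baseline to 40-min post-dose recording, fitted versus DMSO.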

A short description of assay [9]: CCTE_Shafer_MEA_acute_burst_percentage_std: CCTE's Neural Acute Assay for Standard Deviation of Burst Percentage, Shafer Lab (AID 2284018).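 Note: fitted in the negative direction so actives lower burst percentage SD.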 As to the method:
CCTE_Shafer_MEA_acute assay is conducted using Axion Biosystems 48 well microelectrode array (MEA) plates and Maestro recording system. Each well of the MEA plate contains a grid of 16 microelectrodes embedded in the culture surface. Electrically active cells, such as neurons, can be cultured over the electrodes, and electrical activity in these cells can be recorded extracellularly. The spontaneous firing of neurons is captured from each electrode on a microsecond timescale providing both temporally and spatially precise data. […] The CCTE_Shafer_MEA_acute assay uses primary cultures of rat cortical neurons. As these cultures mature over time, neural networks develop functional activity and form cohesive networks in which electrical activity can be highly coordinated. Baseline 40-minute recordings are made on days post-plating 13 or 15, followed by a secondary 40-minute recording after chemical exposure.CCTE_Shafer_MEA_acute_burst_percentage_std is a component of the CCTE_Shafer_MEA_acute assay. […] The standard deviation of the burst percentages across electrodes is calculated to report a well-level value. The recordings before and after chemical treatment are used to calculate a percent change in the standard deviation of the burst percentage in each well.Data from the assay component CCTE_Shafer_MEA_acute_burst_percentage_std was analyzed into 1 assay endpoint. This assay endpoint, CCTE_Shafer_MEA_acute_burst_percentage_std, was analyzed in the negative analysis fitting direction relative to DMSO as the negative control and baseline of activity. […]
Spontaneous activity in the cortical cultures was recorded using an Axion Biosystems Maestro 768 channel amplifier and Axion Integrated Studios (AxIS) v1.8 (or later) software. […] Any electrodes with rms noise levels greater than 5 uV were grounded (e.g., no data were recorded). […] Baseline activity (40 min) was recorded before the addition of each compound. An additional 40 min of spontaneous activity was recorded in the presence of each compound. Changes in network parameters relative to baseline were assessed following compound treatment.

Assay [10] can be described thus: CCTE_Shafer_MEA_acute_per_network_burst_spike_number_mean: CCTE's Neural Acute Assay for Average Number of Spikes in a Network Burst, Shafer Lab (AID 2284019).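 For AC50: curve fitted for loss of signal so actives reduce spikes per network burst.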 A digest of the protocol:
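Read-out is mean spike count per network burst, taken as percent change between a 40-min pre-exposure and a 40-min post-exposure recording per well. Rat primary cortical neurons on MEAs at 37 C, DIV 13 or 15; compounds at 0.03-40 uM.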

Our source for the outcome and AC50 values is PubChem BioAssay (EPA / NIEHS).

The entries are a selection whose mix differs from that of the whole data set. Records with an inconclusive call do not appear. Activity calls are given as the source filed them. Rule for the calls, unless noted: active = hit-call score of the fitted dose curve at least 0.9, where 1 is the maximum; inactive = score below 0.9.

Broadly, the AC50 is the concentration at which the activity in the assay is half-maximal.

For the molecule `CCCCC(CC)CO[P+](=O)OCC(CC)CCCC` (stereo unspecified), the result in assay [1], in assay [2] and in assay [3] was inactive.
On to `Cc1cc([N+](=O)[O-])cc([N+](=O)[O-])c1O`, for which the result in assay [1], in assay [2] and in assay [3] was inactive.
Consider `O=[N+]([O-])c1ccc([N+](=O)[O-])cc1`, for which the result in assay [1], in assay [2] and in assay [3] was inactive.
As for `O=C1C2CC=CCC2C(=O)N1SC(Cl)(Cl)C(Cl)Cl` (stereo unspecified), the outcome in [1], in [2], in [4], in assay [5], in [6] and in assay [7] was inactive. The molecule was called inactive in [8], in assay [9] and in assay [10]. In addition, the AC50 in assay [3] is active: 50 µM.
For `O=[As]c1ccccc1` (stereo unspecified), the AC50 was active: 11.1 µM in assay [1], active: 10.8 µM in assay [2] and active: 7.85 µM in assay [3].
As to `CC(C)OP(=S)(OC(C)C)SCCNS(=O)(=O)c1ccccc1`, the outcome in assay [1], in assay [2], in assay [3], in assay [5], in [6] and in [7] was inactive. Further, the molecule was classed as inactive in [9] and in assay [10]. Besides, the half-maximal activity concentration (AC50) was active: 3.15 µM in assay [4] and active: 31.1 µM in assay [8].
On to `CN(C(=O)Cc1cccc2occc12)[C@H]1CC[C@@]2(CCCO2)C[C@@H]1N1CCCC1`, for which the outcome in assay [1], in [2], in assay [6] and in [9] was inactive. Moreover, the AC50 is active: 4.36 µM in assay [4]; active: 9.88 µM in assay [5]; active: 20 µM in [7]; active: 32.5 µM in assay [8]; active: 0.274 µM in assay [10].
